# Laboratory results from ChEMBL document CHEMBL3639373, “Antimicrobial compounds” (2015).
# Amino acid sequences for entries named in this document (tags omitted).
# UniProt P06709, whole entry: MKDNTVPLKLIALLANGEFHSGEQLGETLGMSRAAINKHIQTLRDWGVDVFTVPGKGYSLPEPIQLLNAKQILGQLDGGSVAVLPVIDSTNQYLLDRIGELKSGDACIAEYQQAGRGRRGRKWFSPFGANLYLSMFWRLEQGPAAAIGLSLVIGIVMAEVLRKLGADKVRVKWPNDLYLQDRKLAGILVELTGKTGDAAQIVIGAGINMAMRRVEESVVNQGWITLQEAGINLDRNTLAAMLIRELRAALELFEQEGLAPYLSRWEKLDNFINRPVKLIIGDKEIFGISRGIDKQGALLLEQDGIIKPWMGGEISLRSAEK
# pKi: −log10 of the molar value.
# Target: Bifunctional ligase/repressor BirA (Escherichia coli (strain K12), UniProt P06709)
# Assay: Enzyme Inhibition Assay: Quantitation of BPL catalysed 3H-biotin incorporation into the biotin domain substrate was performed as previously described by Polyak et al, J. Biol. Chem (1999) 274(46) 32847-54. Briefly, the reaction mixture contained: 50 mM Tris HCl pH 8.0, 3 mM ATP, 4.5 uM biotin, 0.5 uM 3H-biotin, 5.5 mM MgCl2, 100 mM KCl, 0.1 mg/mL BSA and 10 uM biotin domain of S. aureus pyruvate carboxylase. The reaction was initiated by the addition of BPL to a final concentration of 4 nM. After 20 minutes at 37 C., 4 uL aliquots of the reaction were spotted onto Whatman paper pre-treated with biotin and trichloroacetic acid. The filters were washed twice with 10% v/v ice-cold trichloroacetic acid and once with ethanol before air-drying. Quantitation of protein-bound radiolabelled biotin was performed by liquid scintillation. One unit of enzyme activity was defined by the amount of BPL required to incorporate 1 nmol of biotin per minute. The IC50 value of each compound was determined.
smiles,measurement,value
Nc1ncnc2c1ncn2[C@@H]1O[C@H](COP(=O)(O)OCCCCC[C@@H]2SC[C@@H]3NC(=O)N[C@@H]32)[C@@H](O)[C@H]1O,pKi,6.38
